Data as given in US4485117A, “Antiprotozoal compounds” (priority 1981, dated 1984).

Experiment: in vivo
Details: rat, rats, oral, read-out: acute oral LD50
Method: The acute oral LD50 's of compounds of formula (I) in rats were determined by standard techniques.

## CCC(C)(C)C1CCC(C2=C(O)C(=O)c3ccccc3C2=O)CC1 (stereo not shown) [2-hydroxy-3-(4'-t-pentylcyclohexyl)-1,4-naphthoquinone]
  LD50: 2000 mg/kg
